The source of these data is PubChem BioAssay (Tox21).

Chains of the proteins cited; added tags and fusions are not shown.
UniProt Q969F8, whole entry: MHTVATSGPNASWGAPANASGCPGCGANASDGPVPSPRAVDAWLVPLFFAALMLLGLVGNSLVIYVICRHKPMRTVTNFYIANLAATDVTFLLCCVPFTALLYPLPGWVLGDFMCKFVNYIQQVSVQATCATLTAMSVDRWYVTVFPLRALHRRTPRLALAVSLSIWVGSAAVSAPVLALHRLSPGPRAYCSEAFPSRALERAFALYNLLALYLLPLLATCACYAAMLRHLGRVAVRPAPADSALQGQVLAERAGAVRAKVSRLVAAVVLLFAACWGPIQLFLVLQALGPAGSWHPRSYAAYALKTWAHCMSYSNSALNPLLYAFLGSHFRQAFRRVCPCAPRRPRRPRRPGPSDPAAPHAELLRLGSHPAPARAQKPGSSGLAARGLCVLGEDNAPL

This is a selection; strong and weak results do not stand in their true shares. Active and inactive are the calls of the source. The call rests on the fitted dose curve; in most records, active means well fitted activation curve with a large enough effect in the repeat runs; inconclusive means weak or mixed curves; inactive means flat fitted curve, though single readings scatter. Where a call stands in place of a potency, no number is given.

For this experiment, the target named is KiSS-1 receptor (Homo sapiens) (UniProt Q969F8). The experiment can be described thus: Human kisspeptin (KISS1R) small molecule agonists, calcium flux assay in KISS1R-HEK293 cells (AID 1920064). Particulars: KISS1R-HEK293, calcium flux fluorescence, agonist; series mostly up to 76.8 µM. The source says: National Center for Advancing Translational Sciences [NCATS]
Division of Preclinical Innovation [DPI]
U.S. Environmental Protection Agency [EPA]
National Institutes of Environmental Health Sciences [NIEHS]
National Toxicology Program [NTP]
U.S. Food and Drug Administration [FDA]
Kisspeptin and its receptor KISS1R play key roles in mammalian reproduction due to their involvement in the onset of puberty and control of the hypothalamic-pituitary-gonadal axis such as regulates GnRH release from the hypothalamus. The kisspeptin/KISS1R system also plays a direct role in peripheral organs (including the ovary, testis, uterus, and placenta) and is implicated in reproductive diseases such as miscarriage and polycystic ovary syndrome (PCOS). Abnormal KISS1R activity is associated with abnormal puberty, infertility, endometriosis, and hormone-dependent tumors. The KISS1 receptor (KISS1R, also called GPR54), a G-protein-coupled receptor (GPCR), acts (through phospholipase C) to increase intracellular inositol trisphosphate and then release intracellular calcium stores. Cell-based KISS1R-HEK293 assay is using HEK293 cells that have been genetically engineered to express the human KISS1R, which activity can be measured by calcium signaling. A compound/drug can activate (agonist) KISS1R that can be monitored by levels of intracellular calcium.
KISS1R-HEK293 cells developed by Codex Corp contain human KISS1R gene, which was stably integrated into HEK 293 cells. The compound activation can be detected by fluorescence intensity via calcium flux assay. This cell line has been used to screen the Tox21 10K compound library to identify agonists of KISS1R.
KISS1R-Hek293 cells were dispensed at 1500 cells/4uL/well in 1536-well black wall/clear bottom plates using a multidrop dispenser. After the assay plates were incubated at a 37 C/5% CO2 incubator for 18 hours, 4 microL of Calcium Dye Solution was added to each well. The plates were incubated at 37 C for 1 hour. And then 23 nL of compounds dissolved in DMSO, positive controls, or DMSO only was transferred to the assay plate by a pin tool station. The fluorescence intensity in the plates was measured using FDSS 7000EX kinetic plate reader with a filter set of Ex/Em=480/540 for 3 min at 1 sec intervals. Each test compound was measured at 15 concentrations and in triplicates.
In general terms: Calcium flux is commonly read through the fluorescence of an indicator in the cells.
With `Nc1cc([N+](=O)[O-])cc([N+](=O)[O-])c1O`, the Potency entry is “inactive”. In the case of `C/C1=C2N=C(/C=C3N=C(/C(C)=C4\[N-][C@@](C)([C@@H]5N=C1[C@](C)(CCC(=O)NC[C@@H](C)OP(=O)([O-])O[C@H]1[C@@H](O)[C@@H](n6cnc7cc(C)c(C)cc76)O[C@@H]1CO)[C@H]5CC(N)=O)[C@@](C)(CC(N)=O)[C@@H]4CCC(N)=O)[C@@](C)(CC(N)=O)[C@@H]\3CCC(N)=O)C(C)(C)[C@@H]/2CCC(N)=O.[C-]#N.[Co+3]`, the Potency entry was “inactive”. On to `N=C(N)N[N+](=O)[O-]`, for which the Potency result was “inactive”. Consider `COP(C)(=O)OC`, for which the Potency entry was “inactive”. For `CN(C)CCCl` the value was “inactive”; for `O=[N+]([O-])OCC(CO[N+](=O)[O-])(CO[N+](=O)[O-])CO[N+](=O)[O-]`, “inactive”. For `Cc1c([N+](=O)[O-])cccc1[N+](=O)[O-]` the value was “inactive”. For `CC(C)OP(C)(=O)OC(C)C` the value was “inactive”. On to `N#CBr`, for which the Potency entry was “inactive”.

As to `CCOP(=O)(CC)OCC`, the Potency result is “inactive”. In the case of `CCN(CC)CCCl`, the Potency entry is “inactive”. For `CP(=O)(O)OCCC[Si](O)(O)O` the value was “inactive”; for `O=[N+]([O-])[O-].[NH4+]`, “inactive”. Turning to `[NH4+].[O-][Cl+3]([O-])([O-])[O-]`, the Potency result is “inactive”. The result for `O=[N+]([O-])c1cccc([N+](=O)[O-])c1` reads “inactive”. For `Cc1ccc([N+](=O)[O-])cc1[N+](=O)[O-]` the value was “inactive”; for `CCOP(=O)(CC)Oc1ccc([N+](=O)[O-])cc1` (stereo not given), “inactive”; for `Cc1cccc([N+](=O)[O-])c1[N+](=O)[O-]`, “inactive”. For `OCCSCCO` the value was “inactive”; for `CC(C)N(CCO)C(C)C`, “inactive”.
